The values below are quoted from earlier work in patent US5856318A (priority 1997, dated 1999).

The structures appear in SMILES notation.

The test system of this series is kappa opioid receptors. The conditions noted are these: cited from earlier work.

As to `CN(C(=O)Cc1ccc(Cl)c(Cl)c1)[C@@H]1CCCC[C@H]1N1CCCC1` (relative stereo), the “kappa opioid receptor ligand activity” value is “highly selective ligands for kappa opioid receptors”.
